{"source": "patent US8530636B2", "about": "“Method for regulating protein function in cells in vivo using synthetic small molecules” (priority 2008, dated 2013)", "test_system": "L106P-RhoA, L106P-Cdc42, Arl7-L106P", "type": "cell-based, human", "settings": "NIH3T3, Shield1-treated, mock-treated or Shield1 removed", "method": "At this time, cells were washed once with PBS, plated at 8×10^3 cells in 4-well LabTek Chambered coverglass (NUNC) coated with 1 mg/ml poly-D-lysine (Sigma), along with mock-treated transduced cells and transduced cells treated with 1 μM Shield1. Cells were cultured for 24 hr in 10% DBS, then cultured in serum-free media for 12 hr. Cells were then washed with PBS, fixed in 4% paraformaldehyde for 15 min, permeabilized in 0.2% Triton X-100 for 5 min, stained with 1 μg/ml Alexa Fluor 488-conjugated phalloidin (Invitrogen; A12379) in PBS for 20 min, and washed with PBS. Fixed cells were imaged using a Bio-Rad Radiance 2100 confocal microscope.\nExpression of constitutively active small GTPases causes well-characterized changes in cellular morphology (Heo, W. D. and Meyer, T. (2003) Cell 113:315-328). To determine if FKBP-derived destabilizing domains, in combination with Shield1, could affect cell morphology by modulating GTPases levels, several small GTPases (i.e., RhoA, Cdc42, or Arl7) were fused to the destabilizing domains (FIGS. 4A and 4B). […] . […] Mock treatment with Shield1 produced cells with fibroblast-like morphologies. These GTPase-dependent morphology changes were reversible, as treatment with Shield1 followed by removal of Shield1 also produced cells with fibroblast-like morphologies. […]", "data": [{"substance": "1-[2-(3,4,5-trimethoxy-phenyl)-butyryl]-piperazine-2-carboxylic acid 3-(3,4-dimethoxy-phenyl)-1-[3-(2-morpholin-4-yl-ethoxy)-phenyl]-propyl ester [Shield1]", "values": [{"measurement": "Cells displaying the predicted morphology", "value": "> 90", "unit": "%"}]}]}
